The results in this text go back to US11160764B2, “Drug delivery composition containing silyl polymers” (Medherant Limited, priority 2015, dated 2021).

The data set in a line: Solubility of drugs in the adhesive compositions / patches. To be noted: grade A composition (Table 5).

As for `CCN(CC)CC(=O)Nc1c(C)cccc1C` [Lidocaine], the Sol. type result is “Molecular”.
